The source of these data is patent US20250195673A1 (priority 2020, published 2025).

The target in the assay is soluble TfR ectodomain (Homo sapiens, UniProt P02786).

Where two headings read alike, the source gives them in different places.

Take holo-transferrin [holo Tf]: the “binding to TfR ectodomain (SPR response)” value is “binds”. Moreover, the “binding to TfR ectodomain (SPR response)” value (listed as holo-transferrin) is “demonstrated any interaction”.
Take apo-transferrin [apo Tf]: the “binding to TfR ectodomain (SPR response)” value is on record as “does not”.
